Test system: L. fermentum NCCB 46038
Assay: Soft-agar overlay screen of peptide-expressing yeast (BY4742)

Pediocin PA-1 from [Pediococcus acidilactici]
Inhibition, L. fermentum NCCB 46038: −

Source: patent publication US12168763B2, “Microorganisms and methods for reducing bacterial contamination” (Melio Peptide Systems Inc., priority 2020, dated 2024)
